Values of other authors in patent US10155995B2 (dated 2018).

Test system: intracardiac IM
Settings: single case report (Auriti et al. 2008)

interferon alpha-2b
regression of an intracardiac IM: regression
